Activity calls are given as the source filed them. No cut-off for these calls is given here.
Key:
[1] = molecular target: Mu-type opioid receptor (Homo sapiens) (UniProt P35372); test: In vivo ability to inhibit binding of Opioid receptor mu 1; No significant effect
[2] = molecular target: Delta-type opioid receptor (Mus musculus) (UniProt P32300); test: In vivo ability to inhibit binding of Opioid receptor delta 1 in mouse vas deferens; No significant effect
[3] = molecular target: Kappa-type opioid receptor (Cavia porcellus) (UniProt P41144); test: In vivo ability to inhibit binding of Opioid receptor kappa 1 in guinea pig brain; details: concentration not given here

Sequences of proteins named here, by UniProt entry; tags and fusion partners are left off. A change or cut given only in a name is not applied to a line headed by its entry.
UniProt P35372, whole entry, looked up: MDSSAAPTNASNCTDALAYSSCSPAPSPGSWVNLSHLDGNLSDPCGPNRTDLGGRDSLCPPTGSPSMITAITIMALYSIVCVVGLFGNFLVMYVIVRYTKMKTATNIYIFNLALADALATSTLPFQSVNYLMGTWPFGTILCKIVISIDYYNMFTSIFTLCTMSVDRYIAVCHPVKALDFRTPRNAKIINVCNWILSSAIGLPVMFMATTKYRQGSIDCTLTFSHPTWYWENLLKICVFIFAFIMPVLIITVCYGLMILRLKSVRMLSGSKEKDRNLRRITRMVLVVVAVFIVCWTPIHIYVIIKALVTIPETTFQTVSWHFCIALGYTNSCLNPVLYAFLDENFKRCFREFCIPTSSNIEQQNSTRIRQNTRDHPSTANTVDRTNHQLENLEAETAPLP
UniProt P32300, whole entry, looked up: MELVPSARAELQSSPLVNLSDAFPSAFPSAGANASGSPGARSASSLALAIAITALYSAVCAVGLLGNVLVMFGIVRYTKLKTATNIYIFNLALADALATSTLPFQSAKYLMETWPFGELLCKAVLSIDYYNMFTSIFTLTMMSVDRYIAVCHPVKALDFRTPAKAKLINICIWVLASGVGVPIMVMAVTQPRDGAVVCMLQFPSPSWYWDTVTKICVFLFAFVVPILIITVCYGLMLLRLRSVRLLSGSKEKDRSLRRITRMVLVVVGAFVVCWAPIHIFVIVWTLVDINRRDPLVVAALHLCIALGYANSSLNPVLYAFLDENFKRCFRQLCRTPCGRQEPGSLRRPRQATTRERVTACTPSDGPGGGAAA
UniProt P41144: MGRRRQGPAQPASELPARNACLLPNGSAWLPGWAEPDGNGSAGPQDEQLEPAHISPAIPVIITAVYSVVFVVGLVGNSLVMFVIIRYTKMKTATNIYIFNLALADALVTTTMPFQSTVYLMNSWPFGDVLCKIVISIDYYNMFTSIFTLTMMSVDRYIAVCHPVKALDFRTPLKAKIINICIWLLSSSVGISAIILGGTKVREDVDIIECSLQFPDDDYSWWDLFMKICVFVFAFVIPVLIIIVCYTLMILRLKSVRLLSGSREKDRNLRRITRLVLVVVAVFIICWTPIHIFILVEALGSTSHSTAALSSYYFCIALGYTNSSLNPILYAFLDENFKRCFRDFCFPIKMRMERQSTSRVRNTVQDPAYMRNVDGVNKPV

Compound: CN(C(=O)Cc1ccccc1N=C=S)[C@H]1CCCC[C@@H]1N1CCCC1
- inhibition [1]: inactive
- inhibition [2]: inactive
- inhibition [3]: 90%

Source: ChEMBL document CHEMBL1124719, “Selective opioid receptor agonists and antagonists: research tools and potential therapeutic agents” (1990)
